According to patent publication US11160272B2, “Methods for preserving tissue with medical grade honey” (TRITICUM EXPLOITATIE B.V., priority 2017, dated 2021):

Test system: bovine ovarian cortex tissue
Assay: Cellular cytotoxicity (lactate dehydrogenase, LDH, in cell culture supernatant)
Format: cell-based
Settings: 4 h, 24 h and 48 h; no statistically significant differences between groups/time periods
Procedure: Four mature crossbred beef cows (12 months of age) were used for this study. After collection in a local abattoir, the bovine ovarian cortex tissue samples (dissected from medulla and further cut into ultra-thin strips) were cultured in vitro [TCM-199 medium with 10% cow serum] and distributed in four groups, including (1) blank control group, (2) VEGF (50 ng.mL-1) group, (3) L-Mesitran Soft (0.2%) group, and (4) L-Mesitran Ointment (0.2%) group. The 0.2% v/v concentration (L-Mesitran) was chosen according to the highest reported pro-angiogenic effect for this medical grade honey in an in vitro tissue culture. The ovarian cortex endothelial immunolocalization was quantified using Factor VIII [9] R Ag. […] Cellular cytotoxicity (quantitation of lactate dehydrogenase, LDH [11], in cell culture supernatant) was also evaluated in the same mentioned time periods (CytoTox 96® Non-Radioactive Cytotoxicity Assay G1782, Promega GloMax Multi Detection System).
Data from ovarian cortex tissue endothelial density (immunohistochemistry data) and LDH quantification in cell culture supernatant, were analysed using the proc glimmix of SAS (Statistical Analysis Systems, SAS Inst., Inc., Cary, N.C., USA). […] The means of each treatment/hours were calculated and compared by the PDIFF multiple comparison test. […]

Substance: VEGF
- LDH (cytotoxicity) trend over time periods: increasing trend
